Source: patent publication US9493451B2 (Bionomics Limited, priority 2011, dated 2016)

Chains of the proteins cited; added tags and fusions are not shown.
UniProt P22001, whole entry: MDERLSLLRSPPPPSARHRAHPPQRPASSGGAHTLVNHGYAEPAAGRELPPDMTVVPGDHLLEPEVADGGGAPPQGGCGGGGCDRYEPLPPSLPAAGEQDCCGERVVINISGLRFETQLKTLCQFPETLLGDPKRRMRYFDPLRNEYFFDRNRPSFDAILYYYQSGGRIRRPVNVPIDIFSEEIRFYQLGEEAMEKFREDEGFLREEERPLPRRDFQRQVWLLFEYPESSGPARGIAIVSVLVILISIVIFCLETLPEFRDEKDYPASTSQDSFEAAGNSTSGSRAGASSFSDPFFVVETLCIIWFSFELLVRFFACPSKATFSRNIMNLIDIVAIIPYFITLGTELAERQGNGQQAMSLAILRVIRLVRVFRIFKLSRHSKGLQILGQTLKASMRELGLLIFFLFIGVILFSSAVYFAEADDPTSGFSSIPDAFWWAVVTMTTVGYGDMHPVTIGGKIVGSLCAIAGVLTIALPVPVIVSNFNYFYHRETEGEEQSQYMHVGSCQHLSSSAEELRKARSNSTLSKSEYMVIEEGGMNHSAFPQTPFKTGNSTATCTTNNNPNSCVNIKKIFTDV

Each compound was assayed against Kv1.3 (Homo sapiens, UniProt P22001) (assay: Electrophysiology: planar patch-clamp of Kv1.3 currents, IC50 from steady state current amplitude). Conditions: read-out: IC50 (Kv1.3 ephys steady state), Kv1.3 electrophysiology, results according to Method D1.
Experimental: The inhibition data shown for the compounds of the list below was calculated using the steady state current amplitude at the end of the depolarising pulse in patch clamp evaluations (as described in the Biology Protocols: 1. Electrophysiology).
Kv1.x currents were measured in Kv1.3/CHO or Kv1.5/CHO cells using a planar electrode version (Nanion Technologies GMBH) of the patch-clamp technique. Whole-cell Kv1.x current transients were evoked by 500 ms depolarising voltage pulses to +40 mV from a holding potential of −80 mV applied at 10 s intervals for Kv1.5 and at 30 s intervals for Kv1.3 to allow adequate time for recovery from inactivation. Cells were continuously bathed in a buffered saline solution containing (mM): 160 NaCl, 4.5 KCl, 2 CaCl2, 1 MgCl2, 5 glucose, 10 HEPES, pH 7.4, 290-310 mOsm·Kg^−1. The internal (pipette) solution contained (mM): 10 NaCl, 70 KF, 75 KCl, 2 MgCl2, 10 HEPES, 10 EGTA, pH 7.2, 290-310 mOsm·Kg^−1. Series resistance compensation (60-80%) was applied to cells in which the peak current amplitude exceeded 2 nA.
Compound Preparation and Potency Assessment
Compounds were initially dissolved in DMSO to 10 mM. After further dilution in DMSO, compounds were finally diluted in bath solution 1/200 (to give a final DMSO concentration of 0.5%) and applied directly to the recording chamber. Compounds were added at increasing concentrations allowing ample time for steady state block to be achieved between each concentration. Each compound was tested at 5-6 different concentrations on 2-3 cells. Compound IC50 values were determined by fitting the average normalised reduction of either the current integral or the steady state current amplitude at the end of the 500 ms depolarising pulse obtained at each compound concentration to the Hill equation. The IC50 data reported herein is based on the steady state calculation.
With `COCC(c1ccnn1C)N(Cc1ccc(C(F)(F)F)nc1)C(=O)CS(=O)(=O)c1ccc(F)cc1` (stereo not drawn) the IC50 was 200 to 1000 nM. Work on `CCS(=O)(=O)c1cccc(C(C2CCOCC2)N(Cc2ncccc2F)C(=O)C2CC2c2ccc(F)cc2)c1` (stereo not drawn) yielded an IC50 of 200 to 1000 nM. `O=C(C1CC1c1ccc(F)cc1)N(Cc1ccc(F)cn1)C(c1ccc(OC(F)F)cc1)C1CCNCC1` (stereo not drawn) was tested, and the IC50 was 200 to 1000 nM. In the case of `CC(C)Cc1noc(C(C)N(Cc2ccc(C(F)(F)F)nc2)C(=O)[C@@H]2C[C@H]2c2ccc(F)cc2)n1` (single isomer, unassigned), the IC50 is reported as 50 to 200 nM. Work on `CC(C)CC(c1ncnn1C)N(Cc1ccc(C(F)(F)F)nc1)C(=O)C[C@@H](C)c1ccc(F)cc1` (stereo partly drawn) yielded an IC50 of 200 to 1000 nM. In the case of `CCC(c1ncnn1C)N(Cc1ccc(C(F)(F)F)nc1)C(=O)[C@@H]1C[C@H]1c1ccc(F)cc1` (stereo partly drawn), the IC50 is reported as 200 to 1000 nM. With `CS(=O)(=O)c1cccc(CN(C(=O)[C@@H]2C[C@H]2c2ccc(F)cc2)C(c2ccc(Cl)cc2)C2CC2)n1` (stereo partly drawn) the IC50 was < 50 nM. For `CC(C)C(c1ccc(OC(F)F)cc1)N(Cc1ccc(F)c[n+]1[O-])C(=O)[C@@H]1C[C@H]1c1ccc(F)cc1` (stereo partly drawn), the IC50 was 50 to 200 nM. For `CC(C)CC(c1ncnn1C)N(Cc1ccc(C(F)(F)F)nc1)C(=O)[C@@H]1C[C@H]1c1ccc(F)cc1` (stereo partly drawn), the IC50 was 50 to 200 nM.
